These are literature values, as cited in patent US10751387B2, “Pharmacological therapy for neuronopathic Gaucher disease” (priority 2016, dated 2020).

This data set concerns cells. The note with it: cited from earlier work.

For the substance Ryanodine, the Toxicity to cells result is on record as “toxic to cells”.
